Only a part is listed here, and it is no random draw. The source made the active and inactive calls.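 The calls were made as follows: active = response above a set limit, near 3 SD of response in nonfluorescent compounds (cut at about 42% in these data); inactive = the rest.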
Target: Beta-2 adrenergic receptor (Homo sapiens) (UniProt P07550)
Experiment: agonist-induced loss of surface beta2AR – cell-based, FAP fluorogen, flow cytometry, primary screen (AID 504454)
Conditions: Am2.2-beta2AR cells, FAP receptor internalization, active compounds read high, concentration not given here

Amino acid sequences for entries named in this document (tags omitted).
UniProt P07550, whole entry: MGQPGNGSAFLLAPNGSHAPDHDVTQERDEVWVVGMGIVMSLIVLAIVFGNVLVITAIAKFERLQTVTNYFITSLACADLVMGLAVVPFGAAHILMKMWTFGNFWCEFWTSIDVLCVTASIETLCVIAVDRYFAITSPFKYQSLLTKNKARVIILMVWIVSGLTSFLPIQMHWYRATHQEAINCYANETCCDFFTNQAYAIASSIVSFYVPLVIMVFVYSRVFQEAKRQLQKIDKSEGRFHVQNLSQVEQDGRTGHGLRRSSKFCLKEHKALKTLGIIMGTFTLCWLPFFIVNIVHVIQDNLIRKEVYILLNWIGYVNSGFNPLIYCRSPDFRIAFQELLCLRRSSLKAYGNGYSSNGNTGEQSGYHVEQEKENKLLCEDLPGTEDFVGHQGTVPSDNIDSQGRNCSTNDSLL

Row | SMILES | response
1 | CN(C(=O)Cc1ccc(Cl)c(Cl)c1)[C@H]1CC[C@@]2(CCCO2)C[C@@H]1N1CCCC1 | inactive: -2.44%
2 | N#CCCN(C(=O)COC(=O)C(O)(c1ccccc1)c1ccccc1)c1ccc(F)cc1 | inactive: 2.76%
3 | CCOP1(=S)c2c(C)nn(CCC#N)c2N=C(c2ccc(F)cc2)N1C (configuration not stated) | inactive: -1.7%
4 | CN(C(=O)Cc1ccccc1)[C@@H]1CC[C@]2(CCCO2)C[C@H]1N1CCCC1 | inactive: 11%
5 | NC(=O)Nc1ccc([As](=O)(O)O)cc1 | inactive: -4.11%
6 | O=C(O)COc1ccc([As](=O)(O)O)cc1[N+](=O)[O-] | inactive: -7.56%
7 | Nc1ccccc1[As](=O)(O)c1ccccc1 | inactive: -2.14%
8 | CS(=O)(=O)c1cc([N+](=O)[O-])c2no[n+]([O-])c2c1 | inactive: 4.73%
9 | O=C(O)c1cccc(Nc2c([N+](=O)[O-])cc([N+](=O)[O-])cc2[N+](=O)[O-])c1 | inactive: -2.08%
10 | CCOP1(=S)c2c(C)nn(CCC#N)c2N=C(c2ccccc2F)N1C (configuration not stated) | inactive: -7.69%
11 | O=P(Nc1nccs1)(Oc1ccccc1)Oc1ccccc1 | inactive: 1.29%
12 | O=P(Nc1nccs1)(c1ccccc1)c1nc2ccccc2s1 (configuration not stated) | inactive: 7.75%
13 | Cc1cc(C)cc(OP(C)(N)=O)c1 (configuration not stated) | inactive: -4%
14 | CC(C)NC(=O)NP(=O)(Oc1ccccc1)Oc1ccccc1 | inactive: -2.83%
15 | COc1ccccc1OP(C)(=O)Nc1cc(Cl)ccc1C (configuration not stated) | inactive: -1.69%
16 | CCN(CC)C(=S)SC(NC=O)C(Cl)(Cl)Cl (configuration not stated) | inactive: 1.86%
17 | O=C(OC1CN2CCC1CC2)c1cccc2[nH]cnc12 (configuration not stated) | inactive: 0.41%
18 | COc1ccc(OP(C)(=O)Nc2cccc(F)c2)cc1 (configuration not stated) | inactive: 9.37%
19 | O=[N+]([O-])c1cc([N+](=O)[O-])c(-c2ccn[nH]2)s1 | inactive: 10.2%
20 | COc1ccccc1OP(C)(=O)Nc1ccc(C)cc1 (configuration not stated) | inactive: 15.4%
21 | COC(=O)C1(C)COP(=O)(N2CCCCCC2)OC1 (configuration not stated) | inactive: -1.37%
22 | Cc1ccc(NP(C)(=O)Oc2ccccc2)c(C)c1 (configuration not stated) | inactive: 1.04%
23 | CC(C)c1ccc(OP(=O)(Nc2ccccn2)Oc2ccccc2F)cc1 (configuration not stated) | inactive: 0.8%
24 | CCOC(=O)c1ccc(NP(C)(=O)Oc2ccccc2)cc1 (configuration not stated) | inactive: 0.14%

Row | SMILES | response
25 | ClCCSc1nnc(-c2cccnc2)o1 | inactive: -1.11%
26 | O=[N+]([O-])c1ccc2c(c1)C=Nc1ccccc1O2 | inactive: 20.1%
27 | Cc1ccc2nc3c(c(C)c2c1)CC(C(Cl)Cl)S3 (configuration not stated) | inactive: -8.4%
28 | Cc1ccc(OP(=O)(Nc2ccc([N+](=O)[O-])cn2)Oc2ccc(C)cc2)cc1 | inactive: 8.2%
29 | CC(C)(C)c1ccc(OP(C)(=O)Nc2ccc(SC(F)(F)F)cc2)cc1 (configuration not stated) | inactive: 2.42%
30 | Cc1cccc(C)c1OP(C)(N)=O (configuration not stated) | inactive: 8.1%
31 | O=[As](O)(c1ccc(O)cc1)c1ccccc1O | inactive: 14.6%
32 | C[As](=O)(O)c1cccc(C(=O)O)c1 | inactive: -17.9%
33 | O=[N+]([O-])c1ccc(-c2cc([N+](=O)[O-])c(O)c([N+](=O)[O-])c2)cc1 | inactive: 9.17%
34 | COc1cc(C(=O)NCC2(N3CCOCC3)CCCCC2)ccc1OCC(C)C | inactive: -13.4%
35 | O=[N+]([O-])c1cc([N+](=O)[O-])c(Nc2cccnc2)c([N+](=O)[O-])c1 | inactive: -0.87%
36 | COc1ccc(N/C(=N/P(=O)(N2CCOCC2)N2CCOCC2)N2CCOCC2)cc1 | inactive: -0.17%
37 | O=[N+]([O-])c1cc(Oc2ccc([N+](=O)[O-])cc2C(F)(F)F)cc([N+](=O)[O-])c1 | inactive: -4.46%
38 | COc1ccc2nc(NP(=O)(c3ccccc3)c3ccccc3)sc2c1 | inactive: -2.36%
39 | COc1cc(I)ccc1[As](=O)(O)O | inactive: -0.06%
40 | O=P1(N(CCCl)CCCl)OCCCN1CCCl (configuration not stated) | inactive: -7.42%
41 | O=P1(N(CCCl)CCCl)Nc2ccccc2N1 | inactive: 0.42%
42 | O=C(OC1CN2CCC1CC2)C12CC3CC(CC(C3)C1)C2 (configuration not stated) | inactive: -22.1%
43 | Cc1cc(=O)[nH]c(N[N+](=O)[O-])n1 | inactive: 2.49%
44 | CCN(CC)CCCOC(=O)C(O)(c1ccccc1)c1ccccc1 | inactive: 17.2%
45 | Cc1c2c(nc3ccccc13)SC(C(Cl)Cl)C2 (configuration not stated) | inactive: -2.63%
46 | CP(=O)(Nc1ccccn1)Oc1ccc(Cl)cc1 (configuration not stated) | inactive: -1.64%
47 | CCC(C)N(CC(C)C)C(=S)SC(NC(C)=O)C(Cl)(Cl)Cl (configuration not stated) | inactive: 0.73%
48 | O=[N+]([O-])c1cc([N+](=O)[O-])c(O)c([N+](=O)[O-])c1.c1ccc(Oc2ccncc2)cc1 | inactive: -22.3%

Row | SMILES | response
49 | CCOC(=O)c1ccc(NC(=O)C(C)(CCl)SC)cc1 (configuration not stated) | inactive: 1.01%
50 | CCOC(=O)c1ccc(NP(C)(=O)Oc2ccc(OC)cc2)cc1 (configuration not stated) | inactive: -8.77%
51 | CCOP(C)(=S)SCC(=O)NC(C)C(=O)O (configuration not stated) | inactive: -1.49%
52 | O=C(OC1CN2CCC1CC2)c1cccc([N+](=O)[O-])c1 (configuration not stated) | inactive: 3.67%
53 | CP(=O)(NC(=O)Nc1ccccc1)Oc1ccccc1 (configuration not stated) | inactive: 9.91%
54 | O=C(COc1ccccc1)OC1CN2CCC1CC2 (configuration not stated) | inactive: 16.8%
55 | CCc1ccc(OP(C)(=O)N2CCN(c3ccc([N+](=O)[O-])cc3)CC2)cc1 (configuration not stated) | inactive: 6.61%
56 | Cc1cc(C)cc(OP(C)(=O)Nc2ccc(SC(F)(F)F)cc2)c1 (configuration not stated) | inactive: 13.2%
57 | O=C(Nc1ccncc1[N+](=O)[O-])c1ccc([N+](=O)[O-])cc1[N+](=O)[O-] | inactive: 18.5%
58 | COP1(=S)c2c(C)nn(CCC#N)c2N=C(c2ccc(F)cc2)N1C (configuration not stated) | inactive: -4.15%
59 | CP(=O)(Nc1ccc(SC(F)(F)F)cc1)Oc1ccc(Cl)cc1 (configuration not stated) | inactive: 1.35%
60 | Cc1cccc(C)c1OP(C)(=O)Nc1ccc(SC(F)(F)F)cc1 (configuration not stated) | inactive: 5.13%
61 | CP(=O)(Oc1ccccc1)OC(c1ccccc1)C(F)(F)F (configuration not stated) | inactive: -1.53%
62 | CP(=O)(Nc1ccccc1Br)Oc1ccccc1 (configuration not stated) | inactive: -6.47%
63 | O=[N+]([O-])c1ccc(Nc2ccc(Oc3ccc([N+](=O)[O-])cc3[N+](=O)[O-])cc2)c([N+](=O)[O-])c1 | inactive: -2.76%
64 | Cc1cc(SC(NC=O)C(Cl)(Cl)Cl)ncn1 (configuration not stated) | inactive: 2.68%
65 | O=P(Nc1ccccn1)(c1cccc2ccccc12)c1cccc2ccccc12 | inactive: 1.24%
66 | COc1ccccc1OP(C)(=O)Nc1ccccc1 (configuration not stated) | inactive: 1.06%
67 | CCOC(=O)Nc1cccc([As](=O)(O)O)c1 | inactive: -4.95%
68 | CP(=S)(Nn1cnnc1)Oc1ccccc1 (configuration not stated) | inactive: 5.06%
69 | CCCCOc1ccc(C(=O)NCC2(N3CCCCC3)CCCCC2)cc1OC | inactive: -3.85%
70 | Cc1cc(SC(NC(=O)c2ccccc2)C(Cl)(Cl)Cl)nc(C(C)C)n1 (configuration not stated) | inactive: 9.94%
71 | CC1CCNP(=O)(N(CCCl)CCCl)O1 (configuration not stated) | inactive: -10.8%
72 | CCOC(=O)Nc1ccc([As](=O)(O)O)c(O)c1 | inactive: -4.19%

— PubChem BioAssay AID504454 (NMMLSC, 2011)
